In patent US20230331675A1, “AROMATIC ETHYLENE COMPOUND AND PREPARATION METHOD THEREFOR, AND INTERMEDIATE, PHARMACEUTICAL COMPOSITION, AND APPLICATION THEREOF” (GUANGZHOU MAXINOVEL PHARMACEUTICALS CO., LTD., priority 2020, published 2023) one finds IC50 data, which are given here for 1 compound.

Chains of the proteins cited; added tags and fusions are not shown. Residues count along the entry.
UniProt Q9NZQ7, 19-238 limits assumed: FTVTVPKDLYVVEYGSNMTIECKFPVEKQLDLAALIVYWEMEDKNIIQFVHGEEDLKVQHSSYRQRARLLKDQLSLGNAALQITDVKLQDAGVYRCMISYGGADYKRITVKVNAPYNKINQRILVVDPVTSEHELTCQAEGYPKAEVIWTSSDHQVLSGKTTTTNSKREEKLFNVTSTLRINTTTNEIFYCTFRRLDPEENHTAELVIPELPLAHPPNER

Structures are written as SMILES.

This assay deals with PD-1/PD-L1 (Homo sapiens (Human), UniProt Q9NZQ7). In words: Homogeneous time-resolved fluorescence (HTRF) binding assay. The note with it: read-out: IC50 of compounds binding to PD-1/PD-L1, CisBio kit. An excerpt:
Effect embodiment 1: Homogenouse time-resolved fluorescence
Homogeneous time-resolved fluorescence (HTRF) binding assay was used to determine the binding ability of the compound of the present disclosure to PD-1/PD-L1.
The purchased kit (CisBio, #64CUS000C-1) contained reagents required for assays such as PD-1, PD-L1, anti-tag1-Eu, Anti-tag2-XL665, dilute buffer, and detection buffer.
1. The compound was formulated to 10 concentrations with a 3-fold gradient with 100% DMSO.
2. The DMSO solution of the compound was added to the dilute buffer, mixed thoroughly, then transferred to a 96-well plate.
3. PD-L1 was diluted with dilute buffer, then added to the above 96-well plate.
4. PD-1 was diluted with dilute buffer and added to the above 96-well plate, which was then incubated at room temperature for 30 minutes.
5. A portion of anti-tag1-Eu and a portion of anti-tag2-XL665 were added to the detection buffer, mixed thoroughly and transferred to the above 96-well plate.
6. The mixture in the above 96-well plate was incubated at room temperature for 1 to 24 hours.
7. HTRF values were read with Envision.

Consider `[2H]/C(=C(/[2H])c1cccc(-c2ccccc2)c1C)c1cc(OC)c(CN2CCCC[C@H]2C(=O)O)cc1C(F)(F)F`, for which the IC50 amounted to 2 nM.
